According to patent publication US20160215111A1, “MATERIALS AND METHODS” (THE UNIVERSITY OF SYDNEY, priority 2013, published 2016):

System: Human dermal fibroblasts
Settings: allylamine vapor treated PIII PTFE, no protein, over the durations of cell attachment analysis

With `C=CCN` [allylamine] the “toxicity to cells of allylamine treatment of the surface” value was “non-toxic to cells”.
